Source: ChEMBL document CHEMBL1132771, “Analogues of SB-203207 as inhibitors of tRNA synthetases” (Bioorg Med Chem Lett, 2000)
The source made the active and inactive calls. No cut-off for these calls is given here.

Test system: Leucine--tRNA ligase (Staphylococcus aureus)
Test: Compound (100 uM) was evaluated for its inhibitory activity against Leucyl-tRNA synthetase from staphylococcus aureus WCUH29; no inhibition

SMILES | inhibition
CC[C@H](C)CC(=O)NS(=O)(=O)CC(=O)N[C@@]1(C(=O)O)[C@@H](OC(=O)C[C@@H](C)CC)C[C@H]2C(C(N)=O)=CN(C)C[C@H]21 | inactive
CC[C@H](C)CC(=O)NS(=O)(=O)CC(=O)N[C@]1(C(=O)O)[C@@H]2CN(C)C=C(C(N)=O)[C@@H]2C[C@@H]1O | inactive
